From doi:10.1101/2020.10.23.350348

Chains of the proteins cited; added tags and fusions are not shown.
UniProt P02786, whole entry: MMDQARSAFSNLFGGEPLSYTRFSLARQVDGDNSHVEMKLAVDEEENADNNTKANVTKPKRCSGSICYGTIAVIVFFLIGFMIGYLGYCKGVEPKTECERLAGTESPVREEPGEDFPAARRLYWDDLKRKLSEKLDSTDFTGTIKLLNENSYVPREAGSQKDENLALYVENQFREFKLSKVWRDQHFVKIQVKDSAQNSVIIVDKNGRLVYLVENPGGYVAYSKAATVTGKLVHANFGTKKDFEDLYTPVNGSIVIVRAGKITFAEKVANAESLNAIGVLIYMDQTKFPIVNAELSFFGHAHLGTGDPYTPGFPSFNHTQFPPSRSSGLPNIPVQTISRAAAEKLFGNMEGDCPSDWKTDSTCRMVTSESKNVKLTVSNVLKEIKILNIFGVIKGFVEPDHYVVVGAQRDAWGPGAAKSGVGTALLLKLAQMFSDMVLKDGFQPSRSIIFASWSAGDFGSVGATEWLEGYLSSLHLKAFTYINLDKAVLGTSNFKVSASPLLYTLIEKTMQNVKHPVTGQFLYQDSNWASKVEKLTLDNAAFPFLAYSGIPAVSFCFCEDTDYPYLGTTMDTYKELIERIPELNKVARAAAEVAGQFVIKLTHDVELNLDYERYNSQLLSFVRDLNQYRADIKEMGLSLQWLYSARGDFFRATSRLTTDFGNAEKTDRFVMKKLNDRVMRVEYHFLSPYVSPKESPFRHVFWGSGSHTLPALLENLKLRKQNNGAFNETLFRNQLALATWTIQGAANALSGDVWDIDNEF

Biological target: transferrin receptor (UniProt P02786)
Assay: SPR

angiotensin-converting enzyme 2 (from UniProt Q9BYF1 18-805) (receptor)
Kd: 200 nM | koff: 0.0125 s⁻¹ | kon: 63300 M⁻¹ s⁻¹
